The numbers were not newly measured in US10954430B2, “Low-toxicity, low-flammability, environmentally-safe, friction reducer fluid for hydraulic fracturing” (priority 2012, dated 2021), which cites them from elsewhere.

Common to all, as to settings: in vivo
Series [1] has as its system rat.
Series [2] concerns Pimephales promelas (fathead minnow).
Series [3] has as its system daphnia magna (water flea).

Some results are limits rather than exact numbers.

As usually defined, the LD50 is the dose at which mortality reaches 50%. Broadly, the LC50 is the concentration lethal to half of the exposed cells or organisms. Turning to Tripropylene glycol ether, the 50% lethal dose (LD50) in series [1] is on record as 3200 mg/kg. Besides, the values for the LC50 in series [2] and in series [3] were 11.619 mg/mL and > 10,000 mg/L, respectively.
